Positions count from the first letter of the chain named. Values joined by “and” are separate entries in the source; they are usually repeats but may differ in a detail not shown here. Identical values can stand only once.
What was measured:
CYP1B1 D333N = molecular target: T1, CYP1B1 D333N (Homo sapiens, UniProt Q16678, D333N); assay: In cell CYP1B1 activity assay, D333N variant
T1 sequence (Q16678 1-543 D333N): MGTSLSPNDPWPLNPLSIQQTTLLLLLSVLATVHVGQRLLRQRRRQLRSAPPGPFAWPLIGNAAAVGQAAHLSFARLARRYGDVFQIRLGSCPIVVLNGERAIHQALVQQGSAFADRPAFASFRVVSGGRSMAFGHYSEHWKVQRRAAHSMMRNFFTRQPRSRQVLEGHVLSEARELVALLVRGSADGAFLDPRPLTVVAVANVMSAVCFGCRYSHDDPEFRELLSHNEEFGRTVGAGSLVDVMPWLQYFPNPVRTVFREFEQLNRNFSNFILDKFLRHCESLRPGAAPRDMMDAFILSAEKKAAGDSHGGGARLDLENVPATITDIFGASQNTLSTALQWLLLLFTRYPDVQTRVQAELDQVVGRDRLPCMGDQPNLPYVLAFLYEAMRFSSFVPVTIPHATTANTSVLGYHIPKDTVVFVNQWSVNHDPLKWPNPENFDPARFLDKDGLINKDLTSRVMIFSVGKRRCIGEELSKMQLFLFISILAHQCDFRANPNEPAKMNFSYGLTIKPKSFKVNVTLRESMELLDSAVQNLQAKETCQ

CYP1B1 S127A = molecular target: T2, CYP1B1 S127A (Homo sapiens, UniProt Q16678, S127A); assay: In cell CYP1B1 activity assay, S127A variant
T2 sequence (Q16678 1-543 S127A): T1 sequence (Q16678 1-543 D333N) with S127A, N333D

CYP1B1 F134L = molecular target: T3, CYP1B1 F134L (Homo sapiens, UniProt Q16678, F134L); assay: In cell CYP1B1 activity assay, F134L variant
T3 sequence (Q16678 1-543 F134L): T1 sequence (Q16678 1-543 D333N) with F134L, N333D

CYP1B1 Q332E = molecular target: T4, CYP1B1 Q332E (Homo sapiens, UniProt Q16678, Q332E); assay: In cell CYP1B1 activity assay, Q332E variant
T4 sequence (Q16678 1-543 Q332E): T1 sequence (Q16678 1-543 D333N) with Q332E, N333D

[1] = system: cytochrome P450 enzymes in phLMs; assay: Inhibition of cytochrome P450 enzymes in pooled human liver microsomes (phLM)
CYP1B1 = molecular target: T5, CYP1B1 (Homo sapiens, UniProt Q16678); assay: In cell activity assay for CYP1B1 (7-ethoxyresorufin conversion, HEK293 T-Rex cells); settings: p IC50(uM), negative log of the IC50 in μM
T5 sequence (Q16678 1-543): T1 sequence (Q16678 1-543 D333N) with N333D

CYP1B1 S269A = molecular target: T6, CYP1B1 S269A (Homo sapiens, UniProt Q16678, S269A); assay: In cell CYP1B1 activity assay, S269A variant
T6 sequence (Q16678 1-543 S269A): T1 sequence (Q16678 1-543 D333N) with S269A, N333D

Row | Structure (SMILES) | IC50 (CYP1B1 D333N) [nM] | IC50 (CYP1B1 S127A) [nM] | IC50 (CYP1B1 F134L) [nM] | IC50 (CYP1B1 Q332E) [nM] | SI (1B1:phLM) ([1]; ratio of IC50 phLM to CYP1B1, for complexes 4–6 IC50 (light)) | Ratio IC50 (mutant)/ IC50 (WT), D333N (CYP1B1 D333N) | Ratio IC50 (mutant)/ IC50 (WT), S127A (CYP1B1 S127A) | Ratio IC50 (mutant)/ IC50 (WT), F134L (CYP1B1 F134L) | IC50 (CYP1B1) [µM] | Ratio IC50 (mutant)/ IC50 (WT), Q332E (CYP1B1 Q332E) | IC50 (CYP1B1 S269A) [nM] | Ratio IC50 (mutant)/ IC50 (WT), S269A (CYP1B1 S269A) | relative enzyme activity in phLMs ([1]; fraction of control (1 = no inhibition), log conc 1.47712) | relative enzyme activity in phLMs ([1]; fraction of control, log conc 0.273001) | relative enzyme activity in phLMs ([1]; fraction of control, log conc 0.875061) | relative enzyme activity in phLMs ([1]; fraction of control, log conc -0.32906) | relative enzyme activity in phLMs ([1]; fraction of control, log conc -0.93112) | relative enzyme activity in phLMs ([1]; fraction of control, log conc -1.53318) | relative enzyme activity in phLMs ([1]; fraction of control, log conc -2.13524)
1 | O=c1cc(-c2ccccc2)oc2c1ccc1ccccc12 [ANF, α-naphthoflavone, reference compound] | 4400 | 9 | 70 | 1130 | – | – | – | – | – | – | – | – | – | – | – | – | – | – | –
2 | COc1ccc(C=Cc2ccncc2)c(OC)c1 [Compound 3] | 700 | 48 | 15 | 50.8 | > 1000 and 1077 | 2333 | 160 | 50 | 0.000316 | 169 | 2.1 | 7 | – | – | – | – | – | – | –
3 | COc1cc(/C=C/c2ccc(OC)cc2OC)cc(OC)c1 [Compound 1, reference compound] | 8100 | 2.5 | 870 | 298 | – | – | – | – | – | – | 180 | – | 0.4048 | 0.9521 | 0.7398 | 1.01 | 1.028 | 0.996 | 0.9899

— PMC9233675, “Ru(II) photocages enable precise control over enzyme activity with red light” (Nature Communications, 2022)
